Source: the supplement of paper PMC9135407
Structures can show the parent of a compound that is named as a salt. The list shows a part of the results, in another mix than the full data.

System: primary human hepatic stellate cells (donor 1)
Assay: PSMB2 reference mRNA level vs DMSO (fold); higher = more PSMB2 expression
Conditions: 33.3333 µM; 48 h
Description: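 Secondary qRT-PCR screen in primary human HSCs (donor 1), 384-well plates, with compounds dispensed in quadruplicate and incubated for 48 h. Cells-to-CT lysates were used for multiplexed TaqMan qPCR of ACTA2 or COL1A1 with PSMB2 as reference. Fold changes versus DMSO come from a linear model (Ct_gene ~ Ct_PSMB2 + plate + chemical). A hit is defined as COL1A1 and ACTA2 FC <0.5 (FDR <0.05) with PSMB2 between 0.2 and 2.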

| SMILES | PSMB2 reference mRNA level |
| --- | --- |
| N/C(=N/CCc1ccc(I)cc1)SCCCc1cnc[nH]1 [Iodophenpropit dihydrobromide] | 0.0605 |
